Results: patent US20170296682A1, “DERIVATIVES OF DIBENZOTHIOPHENE IMAGING OF alpha-7 NICOTINIC ACETYLCHOLINE RECEPTORS” (THE JOHNS HOPKINS UNIVERSITY, priority 2015, published 2017)

Protein sequences, listed by entry. Tags and fused reporters are not part of them. Residues count along the entry.
UniProt P49582, 23-502: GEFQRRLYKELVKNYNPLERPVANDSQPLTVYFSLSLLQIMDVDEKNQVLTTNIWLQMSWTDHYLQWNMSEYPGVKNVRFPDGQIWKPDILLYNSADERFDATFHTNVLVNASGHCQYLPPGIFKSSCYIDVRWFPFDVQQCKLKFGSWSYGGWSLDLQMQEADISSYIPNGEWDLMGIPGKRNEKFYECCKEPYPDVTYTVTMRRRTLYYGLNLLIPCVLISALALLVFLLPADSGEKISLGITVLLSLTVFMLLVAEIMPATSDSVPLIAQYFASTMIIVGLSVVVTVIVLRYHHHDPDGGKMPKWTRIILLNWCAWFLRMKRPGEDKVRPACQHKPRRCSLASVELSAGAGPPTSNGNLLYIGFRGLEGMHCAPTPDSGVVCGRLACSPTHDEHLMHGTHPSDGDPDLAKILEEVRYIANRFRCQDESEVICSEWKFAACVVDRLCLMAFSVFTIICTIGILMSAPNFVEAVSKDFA

What was measured:
α7-nAChR [1] = settings: in vivo; cited from earlier work
α7-nAChR [2] = target: T1, α7-nAChR (Mus musculus, UniProt P49582); settings: subcutaneous blocking dose, 180 min, superior colliculus
α7-nAChR [3] = target: T1, α7-nAChR; settings: taken from references or estimated as VT/VND -1 or (cortex uptake/cerebellum uptake) -1; cited from earlier work

Structure (SMILES) | BPND in cortex, Monkey or Pig (α7-nAChR [1]) | also measured
[11CH3]n1cccc1-c1nnc(N2CCN3CCC2CC3)o1 | ~1 | 
[11CH3]N1CC2CN(c3ccc(-c4ccccc4)nn3)CC2C1 (stereo not drawn) | 0.3 | 
O=C(Oc1ccc(Br)cc1)N1CCN2CCC1CC2 [Compound 1, reference compound] |  | inhibition of [125I]14 binding (α7-nAChR [2]): significantly inhibited
[11CH3]N1CC2CN(c3ccc4c(c3)C(=O)C3C=CC=CC3O4)CC2C1 (stereo not drawn) |  | BPND in cortex, Mice (α7-nAChR [3]): 0.6-0.7
[18F]c1ccc(-c2nnc(N3CCN4CCC3CC4)o2)cc1 | 0.8 | 
[11CH3]c1ccc(OC(=O)N2CCN3CCC2CC3)cc1 | 0.6 | 
